Earlier results, collected in patent publication US20080138790A1 (priority 2004, published 2008).

Test system: rat
Conditions: in vivo; cited from earlier work

In the case of 1-Butanol, the “LD50 (oral-rat)” value is given as 790 mg/kg.
